According to US12331052B2, “Organic compounds” (INTRA-CELLULAR THERAPIES, INC., priority 2018, dated 2025):

Assays:
CD-1 mice [1] = experiment: Mouse tail flick assay: analgesia after 14-day chronic administration
CD-1 mice [2] = experiment: Mouse tail flick assay: time course for analgesia; type: in vivo; settings: 1 mg/kg s.c.
Mu opiate receptor = Mu opiate receptor (Homo sapiens, UniProt P35372); experiment: Receptor binding, Mu opiate receptor; settings: @ 100 nM

In the case of `O=C1CN2c3c(cccc3[C@@H]3CN(CCCc4noc5cc(F)ccc45)CC[C@@H]32)N1`, the Latency (CD-1 mice [1]; (B) chronic Ex. 3, 0.3 mg/kg, acute Vehicle) is reported as 0.893 s and the Latency (CD-1 mice [1]; (C) chronic Ex. 3, 3.0 mg/kg, acute Vehicle) is reported as 1.04 s.

`O=C1CN2c3c(cccc3[C@@H]3CN(CCCOc4ccc(F)cc4)CC[C@@H]32)N1` [Example 1, (6bR,10aS)-8-(3-(4-fluorophenoxy)propyl)-6b,7,8,9,10,10a-hexahydro-1H-pyrido[3′,4′:4,5]pyrrolo[1,2,3-de]quinoxalin-2(3H)-one] was tested, and the “TF Latency” value (CD-1 mice [2]; 30 min prior) was 5.77 s, the “TF Latency” value (CD-1 mice [2]; 2 h prior) was 2.42 s and the “TF Latency” value (CD-1 mice [2]; 4 h prior) was 1.48 s. For the same molecule, the “TF Latency” value (CD-1 mice [2]; 6 h prior) was 1.36 s, the “TF Latency” value (CD-1 mice [2]; 24 h prior) was 1.29 s and the Latency (CD-1 mice [1]; (A) chronic Vehicle, acute 0.01 mg/kg s.c.) was 1.87 s. It also gave a Latency (CD-1 mice [1]; (A) chronic Vehicle, acute 0.03 mg/kg s.c.) of 2.50 s, a Latency (CD-1 mice [1]; (A) chronic Vehicle, acute 0.1 mg/kg s.c.) of 5.26 s and a Latency (CD-1 mice [1]; (A) chronic Vehicle, acute 0.3 mg/kg s.c.) of 8.26 s. It also gave a Latency (CD-1 mice [1]; (A) chronic Vehicle, acute 1.0 mg/kg s.c.) of 9.74 s, a Latency (CD-1 mice [1]; (B) chronic Ex. 3, 0.3 mg/kg, acute Ex. 1, 0.01 mg/kg) of 1.66 s and a Latency (CD-1 mice [1]; (B) chronic Ex. 3, 0.3 mg/kg, acute Ex. 1, 0.03 mg/kg) of 1.30 s. The Latency (CD-1 mice [1]; (B) chronic Ex. 3, 0.3 mg/kg, acute Ex. 1, 0.1 mg/kg) was 2.60 s, the Latency (CD-1 mice [1]; (B) chronic Ex. 3, 0.3 mg/kg, acute Ex. 1, 0.3 mg/kg) was 3.93 s and the Latency (CD-1 mice [1]; (B) chronic Ex. 3, 0.3 mg/kg, acute Ex. 1, 1.0 mg/kg) was 5.64 s. It also gave a Latency (CD-1 mice [1]; (C) chronic Ex. 3, 3.0 mg/kg, acute Ex. 1, 0.01 mg/kg) of 1.64 s, a Latency (CD-1 mice [1]; (C) chronic Ex. 3, 3.0 mg/kg, acute Ex. 1, 0.03 mg/kg) of 1.80 s and a Latency (CD-1 mice [1]; (C) chronic Ex. 3, 3.0 mg/kg, acute Ex. 1, 0.1 mg/kg) of 3.94 s. The Latency (CD-1 mice [1]; (C) chronic Ex. 3, 3.0 mg/kg, acute Ex. 1, 0.3 mg/kg) was 4.84 s and the Latency (CD-1 mice [1]; (C) chronic Ex. 3, 3.0 mg/kg, acute Ex. 1, 1.0 mg/kg) was 7.94 s.

`O=C1CN2c3c(cccc3[C@@H]3CN(CCCOc4ccccc4F)CC[C@@H]32)N1` [Example 21, (6bR,10aS)-8-(3-(2-fluorophenoxy)propyl)-6b,7,8,9,10,10a-hexahydro-1H-pyrido[3′,4′:4,5]pyrrolo[1,2,3-de]quinoxalin-2(3H)-one] was tested, and the maximum inhibition (Mu opiate receptor) was 34% @.

`CC(C)N1C(=O)CN2c3c(cccc31)[C@@H]1CN(CCCOc3ccc(F)cc3)CC[C@@H]12` [Example 22, (6bR,10aS)-8-(3-(4-fluorophenoxy)propyl)-3-isopropyl-6b,7,8,9,10,10a-hexa-hydro-1H-pyrido[3′,4′:4,5]pyrrolo[1,2,3-de]quinoxalin-2(3H)-one] showed a maximum inhibition (Mu opiate receptor) of 17% @.

`O=C1CN2c3c(cccc3[C@@H]3CN(CCCOc4ccc(I)cc4)CC[C@@H]32)N1` [Example 23, (6bR,10aS)-8-(3-(4-iodophenoxy)propyl)-6b,7,8,9,10,10a-hexahydro-1H-pyrido[3′,4′:4,5]pyrrolo[1,2,3-de]quinoxalin-2(3H)-one] gave a maximum inhibition (Mu opiate receptor) of 88% @.

Molecule `O=C1CN2c3c(cccc3[C@@H]3CN(CCCOc4ccc(Br)cc4)CC[C@@H]32)N1` [Example 24, (6bR,10aS)-8-(3-(4-bromophenoxy)propyl)-6b,7,8,9,10,10a-hexahydro-1H-pyrido[3′,4′:4,5]pyrrolo[1,2,3-de]quinoxalin-2(3H)-one] has a maximum inhibition (Mu opiate receptor) of 91% @.

`Cc1ccc(OCCCN2CC[C@H]3[C@@H](C2)c2cccc4c2N3CC(=O)N4)cc1` [Example 25, (6bR,10aS)-8-(3-(p-tolyloxy)propyl)-6b,7,8,9,10,10a-hexahydro-1H-pyrido-[3′,4′:4,5]pyrrolo[1,2,3-de]quinoxalin-2(3H)-one] was tested, and the maximum inhibition (Mu opiate receptor) was 54% @.
